Target: T1, GPR54 G-Protein coupled receptor (Homo sapiens, UniProt Q969F8)
T1 construct: host or cells: Chem-1 host cells
Test: FLIPR calcium flux agonist assay on GPR54
Type: cell-based
Details: for EC50 (nM): agonist activation at GPR54, no release incubation

Chains of the proteins cited; added tags and fusions are not shown.
UniProt Q969F8, whole entry: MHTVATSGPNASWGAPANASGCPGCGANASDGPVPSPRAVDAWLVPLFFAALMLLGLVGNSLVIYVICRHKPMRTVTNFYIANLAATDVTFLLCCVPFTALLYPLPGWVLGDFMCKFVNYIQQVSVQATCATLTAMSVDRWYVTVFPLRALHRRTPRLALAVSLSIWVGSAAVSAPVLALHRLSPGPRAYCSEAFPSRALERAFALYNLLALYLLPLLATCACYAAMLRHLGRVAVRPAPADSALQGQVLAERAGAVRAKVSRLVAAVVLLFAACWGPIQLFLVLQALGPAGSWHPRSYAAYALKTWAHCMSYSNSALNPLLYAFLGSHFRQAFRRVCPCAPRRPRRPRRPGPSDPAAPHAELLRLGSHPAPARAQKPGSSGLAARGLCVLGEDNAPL

[1] = time of release 0 h (37° C., pH 7 before assay)

[mono]-[mPEG-ButyAldehyde30K]-[Kisspeptin-10] [Ald30K-KP10]
EC50 (nM): No activity

[mono]-[mPEG-ButyAldehyde-10K]-[Kisspeptin-10] [Ald10K-KP10]
EC50 (nM): No activity

mono-[mPEG2-CAC-FMOC-40K]-[Kisspeptin-10] [CAC-40K-KP10]
Fold change compared to metastin (time of release 0 h): 155 | EC50 [1]: 1700 nM | EC50 (time of release 0 h (37° C., pH 7 before assay), listed as CAC-40K Kisspeptin 10): 1600 nM | Fold change compared to metastin (time of release 24 h): 9 | EC50 (time of release 24 h (37° C., pH 7 before assay)): 120 nM | Fold change compared to metastin (time of release 48 h): 6 | EC50 (time of release 48 h (37° C., pH 7 before assay)): 74 nM | Fold change compared to metastin (time of release 96 h): 4 | EC50 (time of release 96 h (37° C., pH 7 before assay)): 47 nM

mono-[mPEG-SBC-30K]-[Kisspeptin-10] [SBC-30K-KP10]
Fold change compared to metastin (time of release 0 h): 23 | EC50 [1]: 280 nM | Fold change compared to metastin (time of release 0 h, listed as SBC-30K Kisspeptin 10): about 23 | Fold change compared to metastin (time of release 2 h): ~17 | EC50 (time of release 2 h (37° C., pH 7 before assay)): 200 nM

From patent US20110166063A1 (priority 2008, published 2011)
